The nature of data set [1]: Tail flick test (analgesic activity). The data set is classed as in vivo. On the procedure:
The “Tail flick” test (test of D'Amour & Smith, 1941, Pharmacol Exp Ther; 72: 74-79) consists in placing the tail of a mouse, after administration of a product, in front of an infrared source in order to produce a nociceptive stimulus (a surface temperature of 55° C.). The reaction time (RT) of the mouse (latency between the start of the light beam and the moment the mouse withdraws its tail) was measured in duplicate at 8 times spread from […] after administration of the product. A maximal 10 second-period has been chosen as the maximal reaction time in order to avoid any tissue damage for the animal.
Products were intravenously-administered at doses comprised between 0.5 and 8 mg/kg (8 mice per group).
Two measures of reaction time were realized before administration of the product for each mouse so as to establish a base line.
The MPE % represents the percentage of possible maximal effect and corresponds to the following formula: […]

Data set [2] in a line: Hot plate test (analgesic activity). The data set is classed as in vivo. To be noted: mouse, intravenous. A general note: Hot-plate and tail-flick tests time the reaction to a heat stimulus.
Data set [3] in a line: Intestinal transit in mice.

Consider `CN1CC[C@]23c4c5ccc(O)c4O[C@H]2[C@@H](O)C=C[C@H]3[C@H]1C5` [Morphine, reference compound], for which the ED50 (usually the midpoint of the dose-response relation) in data set [1] (Mus musculus, iv) worked out at 3.3 mg/kg. Also, in data set [1] (mouse, intravenous), the “ED50, tail flick test” value was determined as 3.273 mg/kg and the “Max Effect (time), tail flick test” value was 30 min. Moreover, in data set [2], it took a dose of 3.8 mg/kg to reach the 50% effect level (ED50) and the “Effet max (time), hot plate test” value came to 30 min. Besides, in data set [3] (at the maximal analgesic effect after iv injection at ED50), the transit inhibition result was “about 90%”. Besides, the “effect on transit while analgesic activity is maintained at maximum” value in data set [3] (in words) is listed as “transit is completely stopped”. The transit inhibition in data set [3] (maintenance of maximal analgesia during 6 h30, two-fold ED50 (morphine re-injected every hour)) is 82%.

The values above are taken from US8158764B2 (priority 2006, dated 2012).
